The results in this text go back to patent US20210395313A1, “PEPTIDE PAC1 ANTAGONISTS” (AMGEN INC., priority 2017, published 2021).

In one assay the target is T1, human PAC1 receptor (Homo sapiens, UniProt P41586).
T1 construct: SHSY-5Y (human neuroblastoma cell line) and RG-2 (rat glioma cell line) cells endogenously express human and rat PAC1 receptors, respectively; endogenous in cells; host or cells: SHSY-5Y human neuroblastoma cells
T1 sequence (P41586 21-468): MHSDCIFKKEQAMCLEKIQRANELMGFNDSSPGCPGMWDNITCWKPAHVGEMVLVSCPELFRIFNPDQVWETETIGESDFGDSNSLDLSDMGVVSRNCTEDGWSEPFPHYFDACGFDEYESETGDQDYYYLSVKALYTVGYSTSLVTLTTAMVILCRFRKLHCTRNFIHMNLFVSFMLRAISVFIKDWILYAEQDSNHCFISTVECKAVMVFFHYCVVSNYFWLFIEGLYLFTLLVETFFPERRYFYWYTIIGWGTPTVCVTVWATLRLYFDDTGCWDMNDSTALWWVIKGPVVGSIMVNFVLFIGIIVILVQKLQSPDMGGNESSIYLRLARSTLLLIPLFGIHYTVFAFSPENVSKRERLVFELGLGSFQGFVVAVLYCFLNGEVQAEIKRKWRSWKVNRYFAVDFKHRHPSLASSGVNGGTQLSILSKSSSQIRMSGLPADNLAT
Description: LANCE Ultra cAMP accumulation antagonist assay in SHSY-5Y cells.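 Further: inhibition of cAMP accumulation evoked by PAC1 agonist at its EC80 in SHSY-5Y cells endogenously expressing receptor, 30 min preincubation then 15 min agonist, TR-FRET readout.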 Format: cell-based. A general note: TR-FRET usually uses a lanthanide donor and a delayed reading to cut background.

A further assay has as its target T2, rat PAC1 receptor (Rattus norvegicus, UniProt P32215).
T2 construct: SHSY-5Y (human neuroblastoma cell line) and RG-2 (rat glioma cell line) cells endogenously express human and rat PAC1 receptors, respectively; endogenous in cells; host or cells: RG-2 rat glioma cells
T2 sequence (P32215 20-523): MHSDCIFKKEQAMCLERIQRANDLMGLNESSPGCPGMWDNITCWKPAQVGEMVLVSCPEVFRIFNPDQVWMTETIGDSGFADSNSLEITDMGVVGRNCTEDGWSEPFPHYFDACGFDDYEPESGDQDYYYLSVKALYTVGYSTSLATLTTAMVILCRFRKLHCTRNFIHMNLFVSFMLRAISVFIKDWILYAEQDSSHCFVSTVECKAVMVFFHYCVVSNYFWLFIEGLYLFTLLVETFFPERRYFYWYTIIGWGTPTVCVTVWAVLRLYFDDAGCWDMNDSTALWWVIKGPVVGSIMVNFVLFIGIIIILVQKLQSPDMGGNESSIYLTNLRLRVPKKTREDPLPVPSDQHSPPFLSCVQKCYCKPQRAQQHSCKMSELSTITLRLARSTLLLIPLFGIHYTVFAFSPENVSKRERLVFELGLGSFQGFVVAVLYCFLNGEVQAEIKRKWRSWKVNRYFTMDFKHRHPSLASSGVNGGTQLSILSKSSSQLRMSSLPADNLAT
Description: LANCE Ultra cAMP accumulation antagonist assay in RG-2 cells.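 Further: RG-2 rat glioma cells endogenously expressing PAC1, test peptide preincubated 30 min, then PAC1 agonist added at its EC80 for 15 min, cAMP accumulation read by LANCE Ultra.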 Type of assay: cell-based.

Consider `CC[C@H](C)[C@H](NC(=O)[C@H](C)NC(=O)[C@H](CCCCN)NC(=O)[C@H](CCCNC(=N)N)NC(=O)[C@H](Cc1ccccc1)NC(=O)[C@H](CCC(N)=O)NC(=O)[C@@H]1CSSC[C@H](NC(C)=O)C(=O)N[C@@H](CC(=O)O)C(=O)N[C@@H](C)C(=O)N[C@@H]([C@@H](C)O)C(=O)N1)C(=O)N[C@@H](CC(=O)O)C(=O)N[C@@H](CC(=O)O)C(=O)N[C@H]1CSSC[C@@H](C(=O)N[C@@H](CCSC)C(=O)N[C@@H](CCCCN)C(=O)N[C@@H](CCC(N)=O)C(=O)N[C@@H](CCCCN)C(=O)N[C@@H](CCCCN)C(=O)N[C@@H](CCCCN)C(=O)N[C@@H](CCC(=O)O)C(=O)N[C@@H](Cc2ccccc2)C(=O)N[C@@H](CCCCN)C(=O)N[C@@H](C)C(=O)NCC(N)=O)NC(=O)C(C)(C)NC(=O)[C@H](CCCCN)NC(=O)[C@H](Cc2ccccc2)NC(=O)[C@H](C(C)C)NC(=O)[C@H](CO)NC(=O)CNC(=O)[C@@H]2CCCN2C(=O)[C@H](C(C)C)NC(=O)[C@H](CC(N)=O)NC(=O)[C@H](CO)NC(=O)[C@H](Cc2c[nH]cn2)NC(=O)[C@H](Cc2c[nH]cn2)NC(=O)[C@H](C)NC(=O)[C@H](CCC(N)=O)NC(=O)[C@H](CCCCN)NC(=O)[C@H](CC(=O)O)NC1=O` [compound 236], for which the IC50 on human PAC1 receptor and against rat PAC1 receptor was 0.01 to 1 nM in each case.

Turning to `CCCC[C@H](NC(=O)[C@@H]1CSSC[C@H](NC(=O)[C@H](CC(=O)O)NC(=O)[C@H](CC(=O)O)NC(=O)[C@@H](NC(=O)[C@H](C)NC(=O)[C@H](CCCCN)NC(=O)[C@H](CCCNC(=N)N)NC(=O)[C@H](Cc2ccccc2)NC(=O)[C@H](CCC(N)=O)NC(=O)[C@@H]2CSSC[C@H](N)C(=O)N[C@@H](CC(=O)O)C(=O)N[C@@H](C)C(=O)N[C@@H]([C@@H](C)O)C(=O)N2)[C@@H](C)CC)C(=O)N[C@@H](CC(=O)O)C(=O)N[C@@H](CCCCN)C(=O)N[C@@H](CCC(N)=O)C(=O)N[C@@H](C)C(=O)N[C@@H](Cc2c[nH]cn2)C(=O)N[C@@H](Cc2c[nH]cn2)C(=O)N[C@@H](CO)C(=O)N[C@@H](CO)C(=O)N[C@@H](Cc2ccccc2)C(=O)N[C@@H](CCCCN)C(=O)NC(C)(C)C(=O)N1)C(=O)N[C@@H](CCCCN)C(=O)N[C@@H](CCC(N)=O)C(=O)N[C@@H](CCCCN)C(=O)N[C@@H](CCCCN)C(=O)N[C@@H](CCCCN)C(=O)N[C@@H](CCC(=O)O)C(=O)N[C@@H](Cc1ccccc1)C(=O)N[C@@H](CCCCN)C(N)=O` [compound 274], the IC50 on human PAC1 receptor and on rat PAC1 receptor was 1 to 100 nM throughout.

As for `CC[C@H](C)[C@H](NC(=O)[C@H](C)NC(=O)[C@H](CCCCN)NC(=O)[C@H](CCCNC(=N)N)NC(=O)[C@H](Cc1ccccc1)NC(=O)[C@H](CCC(N)=O)NC(=O)[C@@H]1CSSC[C@H](N)C(=O)N[C@@H](CC(=O)O)C(=O)N[C@@H](C)C(=O)N[C@@H]([C@@H](C)O)C(=O)N1)C(=O)N[C@@H](CC(=O)O)C(=O)N[C@@H](CC(=O)O)C(=O)N[C@H]1CSSC[C@@H](C(=O)N[C@@H](CCSC)C(=O)N[C@@H](CCCCN)C(=O)N[C@@H](CCC(N)=O)C(=O)N[C@@H](CCCCN)C(=O)N[C@@H](CCCCN)C(=O)N[C@@H](CCCCN)C(=O)N[C@@H](CCC(=O)O)C(=O)N[C@@H](Cc2ccccc2)C(=O)N[C@@H](CCCCN)C(N)=O)NC(=O)C(C)(C)NC(=O)[C@H](CCCCN)NC(=O)[C@H](Cc2ccccc2)NC(=O)[C@H](CO)NC(=O)[C@H](CO)NC(=O)[C@H](Cc2c[nH]cn2)NC(=O)[C@H](Cc2c[nH]cn2)NC(=O)[C@H](C)NC(=O)[C@H](CCC(N)=O)NC(=O)[C@H](CCCCN)NC(=O)[C@H](CC(=O)O)NC1=O` [compound 240], the IC50 is 1 to 100 nM against human PAC1 receptor and 0.01 to 1 nM against rat PAC1 receptor.

With `CC[C@H](C)[C@H](NC(=O)[C@H](C)NC(=O)[C@H](CCCCN)NC(=O)[C@H](CCCNC(=N)N)NC(=O)[C@H](Cc1ccccc1)NC(=O)[C@H](CCC(N)=O)NC(=O)[C@@H]1CSSC[C@H](N)C(=O)N[C@@H](CC(=O)O)C(=O)N[C@@H](C)C(=O)N[C@@H]([C@@H](C)O)C(=O)N1)C(=O)N[C@@H](CC(=O)O)C(=O)N[C@@H](CC(=O)O)C(=O)N[C@H]1CSSC[C@@H](C(=O)N[C@@H](CCSC)C(=O)N[C@@H](CCCCN)C(=O)N[C@@H](CCC(N)=O)C(=O)N[C@@H](CCCCN)C(=O)N[C@@H](CCCCN)C(=O)N[C@@H](CCCCN)C(=O)N[C@@H](CCC(=O)O)C(=O)N[C@@H](Cc2ccccc2)C(=O)N[C@@H](CCCCN)C(=O)N[C@@H](C)C(=O)N[C@@H](CC(N)=O)C(=O)N[C@@H](CCCCN)C(=O)O)NC(=O)C(C)(C)NC(=O)[C@H](CCCCN)NC(=O)[C@H](Cc2ccccc2)NC(=O)[C@H](C(C)C)NC(=O)[C@H](CO)NC(=O)CNC(=O)[C@@H]2CCCN2C(=O)[C@H](C(C)C)NC(=O)[C@H](CC(N)=O)NC(=O)[C@H](CO)NC(=O)[C@H](Cc2c[nH]cn2)NC(=O)[C@H](Cc2c[nH]cn2)NC(=O)[C@H](C)NC(=O)[C@H](CCC(N)=O)NC(=O)[C@H](CCCCN)NC(=O)[C@H](CCC(N)=O)NC1=O` [compound 161], the IC50 against human PAC1 receptor and at rat PAC1 receptor was 0.01 to 1 nM throughout.

Take `CCCC[C@H](NC(=O)[C@@H]1CSSC[C@H](NC(=O)[C@H](CC(=O)O)NC(=O)[C@H](CC(=O)O)NC(=O)[C@@H](NC(=O)[C@H](C)NC(=O)[C@H](CCCCN)NC(=O)[C@H](CCCNC(=N)N)NC(=O)[C@H](Cc2ccccc2)NC(=O)[C@H](CCC(N)=O)NC(=O)[C@@H]2CSSC[C@H](N)C(=O)N[C@@H](CC(=O)O)C(=O)N[C@@H](C)C(=O)N[C@@H]([C@@H](C)O)C(=O)N2)[C@@H](C)CC)C(=O)N[C@@H](CC(=O)O)C(=O)N[C@@H](CCCCN)C(=O)N[C@@H](CCC(N)=O)C(=O)N[C@@H](C)C(=O)N[C@@H](Cc2c[nH]cn2)C(=O)N[C@@H](Cc2c[nH]cn2)C(=O)N[C@@H](CO)C(=O)N[C@@H](CC(N)=O)C(=O)N[C@@H](C(C)C)C(=O)N2CCC[C@H]2C(=O)NCC(=O)N[C@@H](CO)C(=O)N[C@@H](Cc2ccccc2)C(=O)N[C@@H](CCCCN)C(=O)NC(C)(C)C(=O)N1)C(=O)N[C@@H](CCCCN)C(=O)N[C@@H](CCC(N)=O)C(=O)N[C@@H](CCCCN)C(=O)N[C@@H](CCCCN)C(=O)N[C@@H](CCCCN)C(=O)N[C@@H](CCC(=O)O)C(=O)N[C@@H](Cc1ccccc1)C(=O)N[C@@H](CCCCN)C(=O)N[C@@H](C)C(=O)NCC(N)=O` [compound 252]: the IC50 at human PAC1 receptor lay within 1 to 100 nM; against rat PAC1 receptor, 0.01 to 1 nM.

In the case of `CCCC[C@H](NC(=O)[C@@H]1CSSC[C@H](NC(=O)[C@H](CC(=O)O)NC(=O)[C@H](CC(=O)O)NC(=O)[C@@H](NC(=O)[C@H](C)NC(=O)[C@H](CCCCN)NC(=O)[C@H](CCCNC(=N)N)NC(=O)[C@H](Cc2ccccc2)NC(=O)[C@H](CCC(N)=O)NC(=O)[C@@H]2CSSC[C@H](N)C(=O)N[C@@H](CC(=O)O)C(=O)N[C@@H](C)C(=O)N[C@@H]([C@@H](C)O)C(=O)N2)[C@@H](C)CC)C(=O)N[C@@H](CC(=O)O)C(=O)N[C@@H](CCCCN)C(=O)N[C@@H](CCC(N)=O)C(=O)N[C@@H](C)C(=O)N[C@@H](Cc2c[nH]cn2)C(=O)N[C@@H](Cc2c[nH]cn2)C(=O)N[C@@H](CO)C(=O)N[C@@H](CO)C(=O)N[C@@H](C(C)C)C(=O)N[C@@H](Cc2ccccc2)C(=O)N[C@@H](CCCCN)C(=O)N[C@@H](CCC(=O)O)C(=O)N1)C(=O)N[C@@H](CCCCN)C(=O)N[C@@H](CCC(N)=O)C(=O)N[C@@H](CCCCN)C(=O)N[C@@H](CCCCN)C(=O)N[C@@H](CCCCN)C(=O)N[C@@H](CCC(=O)O)C(=O)N[C@@H](Cc1ccccc1)C(=O)N[C@@H](CCCCN)C(N)=O` [compound 221], the IC50 at human PAC1 receptor and on rat PAC1 receptor was 1 to 100 nM each time.

As to `CC[C@H](C)[C@H](NC(=O)[C@H](C)NC(=O)[C@H](CCCCN)NC(=O)[C@H](CCCNC(=N)N)NC(=O)[C@H](Cc1ccccc1)NC(=O)[C@H](CCC(N)=O)NC(=O)[C@@H]1CSSC[C@H](N)C(=O)N[C@@H](CC(=O)O)C(=O)N[C@@H](C)C(=O)N[C@@H]([C@@H](C)O)C(=O)N1)C(=O)N[C@@H](CC(=O)O)C(=O)N[C@@H](CC(=O)O)C(=O)N[C@H]1CSSC[C@@H](C(=O)N[C@@H](CCSC)C(=O)N[C@@H](CCCCN)C(=O)N[C@@H](CCC(N)=O)C(=O)N[C@@H](CCCCN)C(=O)N[C@@H](CCCCN)C(=O)N[C@@H](CCCCN)C(=O)N[C@@H](CCC(=O)O)C(=O)N[C@@H](Cc2ccccc2)C(=O)N[C@@H](CCCCN)C(=O)N[C@@H](C)C(=O)NCC(N)=O)NC(=O)C(C)(C)NC(=O)[C@H](CCCCN)NC(=O)[C@H](Cc2ccccc2)NC(=O)[C@H](CO)NC(=O)CNC(=O)[C@@H]2CCCN2C(=O)[C@H](C(C)C)NC(=O)[C@H](CC(N)=O)NC(=O)[C@H](CO)NC(=O)[C@H](Cc2c[nH]cn2)NC(=O)[C@H](Cc2c[nH]cn2)NC(=O)[C@H](C)NC(=O)[C@H](CCC(N)=O)NC(=O)[C@H](CCCCN)NC(=O)[C@H](CC(=O)O)NC1=O` [compound 234], the IC50 on human PAC1 receptor and on rat PAC1 receptor was 0.01 to 1 nM each time.

A word on the IC50: it is the concentration at which inhibition is half-maximal. Higher therefore signals lower potency.
